Reference: paper PMC2577155 (The Journal of neuroscience : the official journal of the …, 2008)

Protein sequences, listed by entry. Tags and fused reporters are not part of them.
UniProt P08482, whole entry Y381A: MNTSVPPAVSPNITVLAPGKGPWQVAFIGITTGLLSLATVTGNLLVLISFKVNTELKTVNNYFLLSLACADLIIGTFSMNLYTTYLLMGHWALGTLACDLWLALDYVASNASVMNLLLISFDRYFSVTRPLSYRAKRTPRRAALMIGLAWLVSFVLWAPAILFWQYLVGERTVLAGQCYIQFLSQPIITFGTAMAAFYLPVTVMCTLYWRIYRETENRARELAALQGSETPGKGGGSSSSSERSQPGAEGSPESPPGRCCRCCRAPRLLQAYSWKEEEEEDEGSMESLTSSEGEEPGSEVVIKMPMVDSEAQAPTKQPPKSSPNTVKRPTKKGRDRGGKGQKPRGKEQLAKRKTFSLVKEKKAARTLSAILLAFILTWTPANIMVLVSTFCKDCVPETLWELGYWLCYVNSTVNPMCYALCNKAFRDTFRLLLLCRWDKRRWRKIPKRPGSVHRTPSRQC

Assays:
rM1 = rM1 (Rattus norvegicus, UniProt P08482); conditions: atropine 1-10 nM (CCh) or 0.3-3.0 nM (TBPB)
rM1 Y381A = rM1 Y381A (Rattus norvegicus, UniProt P08482, Y381A); conditions: at concentrations that fully activated the wt rM1 receptor

interaction of the agonist with the orthosteric antagonist atropine (rM1): competitively antagonized
effect at rM1 Y381A (rM1 Y381A): without effect
SMILES: C[N+](C)(C)CCOC(N)=O [CCh, carbamylcholine chloride, reference compound]
